We go through two compounds from PMC3389199 (Bioorganic & medicinal chemistry letters, 2012).

This assay relates to CB2 (mouse or human receptor expressed in HEK293). Description: Cannabinoid receptor competition binding, CB2.

Consider `O=C(NCCCCCCNC(=O)ON=C1CCCCC1)ON=C1CCCCC1` [RHC80267 (1), RHC80267], for which the “binding to the cannabinoid receptors (in words), CB2” value is recorded as “did not bind”.

Take `O=C(N[C@H]1COC1=O)OCc1ccccc1` [SD41]: the “binding to the cannabinoid receptors (in words), CB2” value is recorded as “did not bind”.
